These results are taken from US20210338716A1, “Sodium Chlorite Compositions with Enhanced Anti-Viral and Anti-Microbial Efficacy and Reduced Toxicity” (iRenix Medical, Inc., priority 2020, published 2021).

For the series the following is noted: LDPE containers; e-beam doses up to 25 kGy with freezing (sample 12006).

Turning to sodium chlorite, the “concentration of sodium chlorite following electron-beam terminal sterilization” value is “remained stable”.
